Results as given in US8044025B2, “Urocortin proteins and uses thereof” (Research Development Foundation, priority 2000, dated 2011).

By UniProt entry, the sequences of proteins in these tests, tags left out. Residues count along the entry.
UniProt Q60748, 27-431 isoform Q60748-2 limits assumed: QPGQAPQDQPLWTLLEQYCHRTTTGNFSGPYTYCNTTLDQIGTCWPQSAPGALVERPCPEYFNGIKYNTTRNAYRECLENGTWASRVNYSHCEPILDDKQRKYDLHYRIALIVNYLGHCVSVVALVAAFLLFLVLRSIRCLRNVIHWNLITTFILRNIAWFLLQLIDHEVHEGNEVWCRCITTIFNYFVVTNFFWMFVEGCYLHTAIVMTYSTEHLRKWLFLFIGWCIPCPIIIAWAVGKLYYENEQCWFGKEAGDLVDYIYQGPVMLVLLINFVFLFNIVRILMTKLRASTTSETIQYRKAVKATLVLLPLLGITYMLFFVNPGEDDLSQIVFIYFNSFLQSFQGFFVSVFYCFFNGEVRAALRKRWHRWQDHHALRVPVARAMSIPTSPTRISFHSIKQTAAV

How the values were obtained:
CRFR1 [1] = molecular target: T1, CRFR1 (Homo sapiens, UniProt P34998); test: Radioreceptor assay, displacement of 125I-[Tyr0,Glu1,Nle17]-sauvagine, CHO cell membranes (Example 4); assay type: binding
T1 construct: expressed in transfected cells; host or cells: CHO cells, stably transfected
T1 sequence (P34998 24-415): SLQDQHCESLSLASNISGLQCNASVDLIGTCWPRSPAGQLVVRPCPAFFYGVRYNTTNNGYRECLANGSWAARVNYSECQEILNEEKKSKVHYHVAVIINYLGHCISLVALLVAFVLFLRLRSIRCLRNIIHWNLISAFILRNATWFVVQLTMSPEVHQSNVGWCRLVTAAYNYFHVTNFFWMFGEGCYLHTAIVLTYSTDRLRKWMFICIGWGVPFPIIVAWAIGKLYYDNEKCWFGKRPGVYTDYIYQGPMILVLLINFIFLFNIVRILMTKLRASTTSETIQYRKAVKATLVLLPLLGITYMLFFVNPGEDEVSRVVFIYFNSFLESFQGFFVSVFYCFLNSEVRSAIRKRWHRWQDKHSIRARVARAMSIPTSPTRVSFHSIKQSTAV
Procedure: The affinity of Ucn II to the CRF-R1 and CRF-R2 receptors was evaluated using a radioreceptor assay. Crude membrane fractions were prepared from CHO cells stably expressing either cloned CRF-R1 or CRF-R2β. Test peptides and the radioligand, ^125I-[Tyr^0, Glu^1, Nle^17]-sauvagine, were diluted in assay buffer (20 mM HEPES, 2 mM EGTA, 0.1% BSA, 10% sucrose, pH 7.6) and combined with the receptor membrane preparations in MAGV microtiter plates (Millipore) pre-coated with 0.1% polyethylene imine. The reaction mixture was incubated for 90 min at room temperature followed by rapid washing twice with assay buffer and filtration. The radioligand complex was quantified by gamma radiation counting. Inhibitory binding constants were determined using Prism software.
(§1) The values were determined from 3-6 independent experiments using stably transfected CHO cells or their membranes for each test peptide. EC50 and Ki values were determined using Prism software. Their log10 values were averaged (γ). The average EC50 or Ki was taken to be 10^γ. The standard deviation of the log10 values was calculated (σ). The ranges given were taken to be: [(10^γ)10^σ or 10^γ/10^σ].

CRF-R2 = molecular target: T2, CRF-R2 (Mus musculus, UniProt Q60748); test: Accumulation of intracellular cAMP in stably transfected CHO cells; assay type: cell-based; settings: peptides 20 min at 37° C.
T2 construct: expressed in transfected cells; host or cells: CHO cells, stably transfected
Procedure: as §1
(§2) This significant selectivity for the type 2 receptor was seen also in receptor activation as measured by accumulation of intracellular cAMP. Stably transfected CHO cells (cultured in DMEM/10% FBS) were plated into 48-well tissue culture dishes (Costar) and allowed to recover for 24 hours. The medium was changed to DMEM/0.1% FBS at least two hours before treatment. The cells were preincubated for 30 min with 0.1 mM 3-isobutyl-1-methylxanthine and then exposed to peptides for 20 min at 37° C. Intracellular cAMP was extracted and measured in duplicate from triplicate wells using a RIA kit (Biomedical Technologies). […] The extremely low affinity of Ucn II for CRF-R1 precluded a determination of its efficacy on this receptor.

CRFR1 [2] = molecular target: T1, CRFR1; test: as above; assay type: cell-based; settings: peptides 20 min at 37° C.
Procedure: as §1, §2

Fos expression = test: Ucn II-induced Fos expression in rat brain; assay type: in vivo
Description: (§3) To identify cell groups responsive to central Ucn II administration, and to evaluate the extent to which these may conform to sites of CRF-R2 expression, the induced expression of the immediate-early gene product, Fos, in response; to icv peptide administration was monitored. Adult male Sprague-Dawley rats (250-300 g at start of experiments) and C57 BL/6 mice (25-40 g) were housed in a colony room on a 12:12 light:dark cycle, and with free access to food and water prior to experimentation. For intracerebroventricular (icv) injections, rats were anesthetized with ketamine/xylazine/acepromazine and stereotaxically implanted with a 26 ga guide cannula terminating in the lateral ventricle. For intravenous (iv) administration of peptides, animals were fitted with indwelling jugular venous catheters. Rats that received icv injections were also implanted intra-abdominally with a transmitter to remotely monitor gross activity levels and body temperature (Mini-Mitter). After surgery, animals were allowed to recover for 7 days prior to any experimentation, during which time they were handled daily. All procedures were approved by the Institutional Animal Care and Use Committee of the Salk Institute.
(§4) To monitor induced patterns of Fos expression, rats were injected at 10 am, either icv or iv with synthetic Ucn II (1, 5 or 10 μg/animal in 2 μl saline for icv injections or 200 μl for iv administration), or vehicle alone, and perfused two hours later. […] Consumption was then measured hourly for 6 hrs and at 12 hrs. Data were analyzed using repeated measures analysis of variance (ANOVA), with the Bonferoni correction for multiple comparisons applied as warranted.
For immunohistochemistry, tissue was pretreated sequentially with 0.3% hydrogen peroxide and 1% sodium borohydride. It was then permeabilized with PBS/0.2% triton X-100, and incubated with primary antiserum for 48 hr in PBS/2% blocking serum. Fos immunoreactivity was localized using a polyclonal antiserum raised in rabbit against an N-terminal synthetic fragment of human Fos protein (Santa Cruz Biotechnology, 1:5 K). […]

[3] = Nocturnal food intake after icv peptide; assay type: in vivo, rat; settings: 1 μg icv, rats
Description: as §3, with “Rats that received icv injections were also implanted intra-abdominally with a transmitter to remotely monitor gross activity levels and body temperature (Mini-Mitter). After surgery, animals were allowed to recover for 7 days prior to any experimentation, during which time they were handled daily. All procedures were approved by the Institutional Animal Care and Use Committee of the Salk Institute.” left out
as §4, with “warranted. […]” for “warranted.”

[4] = Telemetric gross motor activity after icv peptide; assay type: in vivo, rat; settings: 1 μg icv, rats, telemetry
Description: as §3, with “All procedures were approved by the Institutional Animal Care and Use Committee of the Salk Institute.” left out
In these same subjects, gross motor activity and body temperature were monitored telemetrically (FIG. 10B). […] Core body temperature was also recorded, with each peptide provoking comparably mild (0.5-1° C.) and transient (2 hr) hypothermic responses (data not shown).

For CC[C@H](C)[C@H](NC(=O)[C@H](CCC(N)=O)NC(=O)[C@H](C)NC(=O)[C@H](CC(N)=O)NC(=O)[C@@H](NC(=O)[C@H](C)NC(=O)[C@H](C)NC(=O)[C@H](CCC(N)=O)NC(=O)[C@H](CC(N)=O)NC(=O)[C@H](CCCNC(=N)N)NC(=O)[C@H](C)NC(=O)[C@H](C)NC(=O)[C@H](CCCCN)NC(=O)[C@H](Cc1ccc(O)cc1)NC(=O)[C@H](CCCNC(=N)N)NC(=O)[C@H](C)NC(=O)[C@H](CCC(N)=O)NC(=O)[C@H](CCC(=O)O)NC(=O)[C@H](CC(C)C)NC(=O)[C@H](CC(C)C)NC(=O)[C@@H](NC(=O)[C@H](CCCNC(=N)N)NC(=O)[C@H](CC(C)C)NC(=O)[C@H](CC(C)C)NC(=O)CNC(=O)[C@@H](NC(=O)[C@@H]1CCCN1C(=O)[C@@H](NC(=O)[C@H](CC(=O)O)NC(=O)[C@H](CC(C)C)NC(=O)[C@H](CO)NC(=O)[C@H](CC(C)C)NC(=O)[C@@H](NC(=O)[C@@H](N)C(C)C)[C@@H](C)CC)C(C)C)[C@@H](C)CC)[C@@H](C)CC)[C@@H](C)O)C(=O)N[C@@H](CC(C)C)C(=O)N[C@@H](C)C(=O)N[C@@H](Cc1c[nH]cn1)C(=O)N[C@H](C(N)=O)C(C)C [Urocortin II], the Ki (CRFR1 [1]; CHO membranes, 3-6 experiments, range from SD of log10 values, read-out: CRF-R1 Avg. Ki (nM) (Binding)) was greater than 100 nM, the “Fold less effective than urocortin at competing for binding of labeled sauvagine to CRF-R1” value (CRFR1 [1]; compared to urocortin) was “at least 1000 fold” and the EC50 (CRF-R2) was 0.14 nM. The EC50 (CRFR1 [2]) was greater than 100 nM, the “Induced Fos expression in brain” value (Fos expression; 1 μg icv, rats perfused two hours later) was “activational responses that were most salient in a group of interconnected structures involved in central autonomic control” and the “Induced Fos expression in brain” value (Fos expression; 5 or 10 μg icv) was “more robust activational responses of similar distribution”. The “Induced Fos expression in brain” value (Fos expression; intravenous, 1, 5 or 10 μg) was “Only the highest (10 μg) dose gave rise to Fos induction that was clearly above control levels”, the “Degree of suppression of food intake over the 12 hr interval” value ([3]; nocturnal phase) was 35% and the “Time post-injection at which food intake is significantly less than saline controls” value [3] was 6 h. For the same molecule, the “Gross motor activity versus vehicle” value [4] was “neither urocortin nor urocortin II significantly affected motor activity” and the “Gross motor activity versus vehicle” value ([4]; listed as Ucn II) was “Neither Ucn nor Ucn II treatment provoked reliable alterations”.
